Tests used:
[1] = system: human hippocampal lysates; assay: Quenched Aβ peptide (qAβ) degradation assay in human hippocampal lysates at different Braak stages; type: biochemical; conditions: Braak VI compared to Braak 0
Description: Since the hippocampus is highly susceptible to Aβ accumulation, we examined whether the ability to degrade Aβ is affected in sporadic (sAD) using human hippocampal tissue of post-mortem brains with varying Braak stages. Included were Braak 0 (control, no AD) and Braak I-VI. When the ability to degrade qAβ was determined for each Braak stage (Fig. 2A, solid bars), a strong decrease in qAβ degradation rate was already observed in Braak stage I (t-test, two-tailed, p=0.03), which further decreased during the progression to Braak stage II (t-test, two-tailed, p=0.01). […] In Braak VI, qAβ degradation rate decreased with more than 65% compared to Braak 0. […] Also oligomerized Aβ was less well degraded with increasing Braak stage (Fig. 2B). AD progression can also be classified by plaque distribution in well defined brain areas giving a particular amyloid score, ranging from O (no plaques) to C. Similar to increasing Braak stages, the rate of qAβ degradation decreased with increasing amyloid score, being significant for hippocampal fractions of brains classified with amyloid score C (t-test, two-tailed, p=0.017) (Fig. 2C). […]
HFIP-treated aliquots of Aβ40 were resuspended in DMSO followed by sonication for 10 minutes, immediately before use. […] Degradation of the peptide was analyzed at 37°C using the FLUOstar OPTIMA (BMG Labtec.).

[2] = system: HEK293 cytosolic fractions; assay: Quenched Aβ peptide (qAβ) degradation assay in HEK293 cytosolic fractions, with and without protease inhibitors; type: biochemical
From the text: We developed a sensitive Aβ degradation assay by generating a quenched Aβ40 peptide containing a small fluorescein group and a quenching dabcyl group (Reits et al., 2004) flanking the KLVFF sequence present in the middle of the Aβ peptides that is a critical region for aggregation (Fig. 1A) (Tjernberg et al., 1996). A quenched Aβ42 peptide was difficult to synthesize as the peptide was too aggregation-prone during synthesis, preventing efficient labeling with the small fluorophore. […] The qAβ peptides were added to cytoplasmic fractions of mildly lysed HEK293 cells, thereby preventing contamination with extracellular membrane-bound or lysosomal proteases, resulting in an increase in fluorescent signal (Fig. 1B). To identify which proteases play a role in this Aβ clearance machinery, different protease inhibitors were added to the cytosolic fractions prior to adding the qAβ. […]
HEK cells were lysed in 25 µM digitonin (Sigma) in KMH buffer (110 mM KAc, 2 mM MgAc and 20 mM Hepes-KOH, pH 7.2). Human and mouse brain hippocampal tissue was lysed in ± 400 µl (adjusted to the amount of tissue) of homogenization buffer (50 mM Tris/HCl pH 7.5, 250 mM sucrose, 5 mM MgCl2 and freshly added 2 mM ATP, 1 mM DTT and 0.025 % digitonin (Sigma)). Tissue was homogenized on ice in homogenization buffer using a homogenizer. Cell lysates were incubated for 30 minutes on ice and centrifuged for 15 minutes at 14.000 rpm at 4 °C.
HFIP-treated aliquots of Aβ40 were resuspended in DMSO followed by sonication for 10 minutes, immediately before use. 75 ng (340 nM) of quenched Aβ40 was added to 5 µg protein from the cell lysates in KMH buffer (110 mM KAc, 2 mM MgAc and 20 mM Hepes-KOH, pH 7.2) to a total volume of 50 µl. […] Degradation of the peptide was analyzed at 37°C using the FLUOstar OPTIMA (BMG Labtec.).

[3] = Electron microscopy of Aβ peptide oligomerisation; type: physicochemical; conditions: at 37°C, over time

## DAEFRHDSGYE(q)HHQKLVFFA(f)DVGSNKGAIIGLMVGGVV [qAβ]
[1]
  decrease of qAβ degradation rate: more than 65%
[2]; monomeric qAβ in HEK293 cytosolic fractions, without inhibitor
  qAβ degradation (fluorescence): is degraded
[2]; qAβ in KMH buffer only, no lysate
  qAβ degradation (fluorescence): not
[2]; qAβ pre-incubated at 37 °C for 2-6 hours to oligomerize, then added to HEK293 cytosolic fraction
  degradation of pre-incubated qAβ (fluorescent levels): Reduced fluorescent levels
[3]
  oligomerisation (electron microscopy): increased oligomerisation with time
